# Measurements reported in US9579314B2 (priority 2015, dated 2017).
# What was measured:
# Human M3 receptor = Human M3 receptor (Homo sapiens, UniProt P20309); experiment: M3 Receptor Radioligand Binding Assay; details: read-out: M3 binding affinity, Human M3 receptor membranes, classified in ranges
# Human β2 adrenoceptor = Human β2 adrenoceptor (Homo sapiens, UniProt P07550); experiment: β2 Adrenoceptor Radioligand Binding Assay; details: read-out: B2 binding affinity, Human β2 adrenoceptor membranes, classified in ranges
smiles,measurement,setting,value
O=C(Nc1cccc(C(O)(C(=O)O[C@H]2CN3CCC2CC3)c2ccccc2)c1)c1ccc(OCCCCCNC[C@H](O)c2ccc(O)c3[nH]c(=O)ccc23)cc1 (stereo partly shown),IC50,Human M3 receptor,0.3 to 3 nM
same,IC50,Human β2 adrenoceptor,< 0.3 nM
O=C(O[C@H]1CN2CCC1CC2)C(O)(c1ccccc1)c1ccc(OCCCCCNC[C@H](O)c2ccc(O)c3[nH]c(=O)ccc23)cc1 (stereo partly shown),IC50,Human M3 receptor,0.3 to 3 nM
same,IC50,Human β2 adrenoceptor,< 0.3 nM
